Compounds with a hit are over-represented: about 0.73% of the library has one in this group of screens.
XiGFP reactiv – reactivates the inactive X chromosome in mouse fibroblasts | XiGFP mouse fibroblasts, % GFP-positive cells imaging, 3 d; cells co-treated with 5-aza-dC sensitizer; scaled so ellipticine positive control = 100% | activation, % at 7.58 µM | 360,000 tested, 0.055% active | AID 743238;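 active = mean normalized replicate activation at least 10% and every replicate at or above 10%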;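 also: 0% = median of on-plate neutral control wells and 100% = ellipticine 6 µM median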
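System: 68-5-11 XiGFP fibroblast line; Timing: 3 days compound exposure; Compound dosing: one concentration, pinned; Benchmarks: positive control ellipticine, 6 µM final; Buffer or medium: DMEM containing 5-aza-dC.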
E-sel inducer – E-selectin induction on HUVECs; 260,000 tested, 0.37% active; P16581; HUVEC E-selectin immunofluorescence imaging; normalized: neutral wells 0, TNF-alpha wells 100; activation, % at 7.58 µM;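 active = mean E-selectin-positive cell signal at least 10% of the positive control, reached in at least 60% of replicates, without over 20% cell loss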
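material = human umbilical vein endothelial cells (HUVEC), E-selectin induction | quantity = 3,000 cells/well | medium = EGM-2 growth medium on 0.1% gelatin-coated wells | technique = immunofluorescence imaging | read-out basis = % PE-positive cells | control set = TNF-alpha positive control, DMSO neutral control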
Yeast UUG start – alters start codon recognition fidelity in yeast | S. cerevisiae UUG-firefly luciferase reporter, luminescence/redox ratio | activity score, % at 18.7 µM | 350,000 compounds, 0.13% hits | AID 602363;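 active = replicate mean at a twofold rise or more, about +100% in these data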;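 note: firefly luciferase made from a UUG start codon reports start codon fidelity; reporter light over untreated wells divided by growth signal over untreated wells; some hits fall short of that in this replicate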
RAD54 branch – inhibitors of human RAD54 branch migration. Q92698. RAD54 Holliday junction branch migration, FAM/BHQ fluorescence. inhibition, % at 10.4 µM. 360,000 tested, 0.14% active. AID 602329;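 active = mean normalized replicate activity at least 40 and at least half of replicates scoring 40 or more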;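 also: 0% = median of neutral control wells and 100% = median of positive control wells; inhibitors cause a drop in the FAM fluorescence signal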
RAD52 inh – blocks human RAD52 DNA annealing. P43351. recombinant RAD52 DNA annealing, FRET fluorescence. inhibition, % at 18.7 µM. 360,000 tested, 0.46% active. AID 651710;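 active = every replicate showing at least 50% inhibition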
RAD52 DNA ctr – counter-screen for RAD52 inhibitors: DNA binding compounds. shares compounds with RAD52 inh. AC50, µM. AID 652128. 1,000 tested, 8% active. Salmon sperm DNA/acridine orange FP displacement;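 active = fitted half-maximal concentration for signal loss at or below twice the highest dose tested, in every separate run, actives reach about 64 µM in these data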
The depositor's hits bear a star; i = inactive; / = no result; ! = a repeat was not active.

Start of the data: the first 4 records (preview)
| Structure | XiGFP reactiv | E-sel inducer | Yeast UUG start | RAD54 branch | RAD52 inh | RAD52 DNA ctr |
| --- | --- | --- | --- | --- | --- | --- |
| COc1ccc(-c2coc3c(C(=O)NCCN(C)C)cccc23)c(C)c1 | 0.0 | -0.3 | -4.2 | 12.7 | 26.0 | / |
| COc1ccc(C(=O)NCCN(C)C)c2nc3ccccc3cc12 | -0.1 | 0.8 | / | / | 90.6* | 24.9µM* |
| COc1ccc(Cl)cc1C(=O)NCCN(C)C | / | / | -18.8 | 7.1 | / | / |
| CN(C)CCNC(=O)c1cccc2nc3c(ccc4ccccc43)nc12 | -0.2 | 8.0 | / | / | 95.1* | 13.5µM* |

This part in full, from the first entry:
| Structure | XiGFP reactiv | E-sel inducer | Yeast UUG start | RAD54 branch | RAD52 inh | RAD52 DNA ctr |
| --- | --- | --- | --- | --- | --- | --- |
| COc1ccc(-c2coc3c(C(=O)NCCN(C)C)cccc23)c(C)c1 | 0.0 | -0.3 | -4.2 | 12.7 | 26.0 | / |
| COc1ccc(C(=O)NCCN(C)C)c2nc3ccccc3cc12 | -0.1 | 0.8 | / | / | 90.6* | 24.9µM* |
| COc1ccc(Cl)cc1C(=O)NCCN(C)C | / | / | -18.8 | 7.1 | / | / |
| CN(C)CCNC(=O)c1cccc2nc3c(ccc4ccccc43)nc12 | -0.2 | 8.0 | / | / | 95.1* | 13.5µM* |
| CN(C)CCNC(=O)c1ccccc1-c1ccccc1 | / | / | 12.1 | 9.6 | / | / |
| CCNC(=O)C[C@H]1CC[C@H]2[C@H](COc3ccc(NC(=O)NC(C)C)cc3C(=O)N2C)O1 | 0.5 | 0.0 | -2.1 | 1.4 | -6.6 | / |
| COCC(=O)N(C)C[C@@H]1Oc2ncc(C#CCC3CCCC3)cc2C(=O)N([C@@H](C)CO)C[C@H]1C | -1.0 | -2.9 | 17.8 | 3.0 | -7.1 | / |
| C[C@@H]1CCCCO[C@@H](CN(C)Cc2ccc(C(F)(F)F)cc2)[C@H](C)CN([C@H](C)CO)C(=O)c2cc(NC(=O)CCC(F)(F)F)ccc2O1 | -0.9 | 0.2 | 10.0 | -6.5 | -31.9 | / |
| COc1cccc2nc3c(C(=O)NCCN(C)C)cccc3cc12 | -0.1 | 0.7 | / | / | 81.3* | 33.8µM* |
| Cc1ccc(Sc2cc(C(=O)NCCN(C)C)c3ccccc3n2)cc1 | 0.0 | 0.0 | 0.5 | -4.4 | -2.0 | / |
| C[C@H](CO)N1C[C@H](C)[C@@H](CN(C)Cc2cccc(F)c2)Oc2cc(-c3ccccc3)ccc2S1(=O)=O | -1.1 | -0.1 | 20.0 | -0.5 | 15.1 | / |
| COc1cc2c(cc1OC)-c1cc3ccc4c(c3c[n+]1CC2)OCO4 | 0.0 | 1.0 | 18.3 | -11.0 | -437.2 | / |
| COc1cc2c(cc1O)CC[n+]1cc3c(OC)c(OC)ccc3cc1-2 | 0.2 | / | 13.8 | 75.7* | 81.3* | i |
| OC(CNCCc1ccc(Cl)cc1)COc1ccc2ccccc2c1 (stereo unspecified) | 0.0 | -0.2 | -8.8 | -5.4 | 53.3* | i |
| CCN(CC)CCOc1ncnc2c1oc1ccccc12 | / | / | -9.2 | 15.5 | / | / |
| CCCCc1oc2ccccc2c1C(=O)c1cc(I)c(OCCN(CC)CC)c(I)c1 | 0.3 | 0.0 | -10.0 | 2.3 | 50.3* | i |
| Cc1cc(N2CCNC[C@@H]2C)ccc1N1CCN(Cc2ccccc2)[C@@H](C)C1 | 0.2 | 0.0 | / | / | 50.7* | i |
| Cc1c(C)n(C)c2ccc(C(=O)NCCCN3CCN(C)CC3)cc12 | 0.5 | / | -10.6 | 9.7 | 74.2* | i |
| CCCCCc1cc(=O)oc2c(C(CCN3CCCC3)c3cc(OC)c(OC)c(OC)c3)c(OC)cc(OC)c12 (stereo unspecified) | 0.0 | -0.1 | 23.0 | 6.7 | 59.3* | i |
| O=C(CN1CCCC(O)C1)N1c2ccccc2Sc2ccc(C(F)(F)F)cc21 (stereo unspecified) | / | / | 0.4 | -2.1 | / | / |

(cont.)
| Structure | XiGFP reactiv | E-sel inducer | Yeast UUG start | RAD54 branch | RAD52 inh | RAD52 DNA ctr |
| --- | --- | --- | --- | --- | --- | --- |
| CN1CCN(CCCN2c3ccccc3Sc3ccc(C(F)(F)F)cc32)CC1 | -0.1 | -0.1 | 4.6 | 20.7 | 50.5*! | i |
| CCCC(=O)Nc1ccc2c(c1)OC[C@@H](C)N(Cc1ccccc1C(=O)O)C[C@@H](C)[C@H](OC)CN(C)C2=O | 0.0 | 0.3 | -4.7 | -0.9 | 8.7 | / |
| Cn1c(N=Nc2ccc(N3CCOCC3)cc2)[n+](C)c2ccccc21 | 0.0 | -1.0 | 28.8 | 92.4* | 103.4* | 11.3µM* |
| CCN(CC)CCNC(=O)c1cc2c(-c3cccc(OC)c3)nn(C)c2s1 | 0.0 | 1.1 | / | / | 68.5* | i |
| Cc1noc(C)c1S(=O)(=O)Nc1ccc2c(c1)C(=O)N([C@@H](C)CO)C[C@@H](C)[C@@H](CN(C)Cc1ccc(C(F)(F)F)cc1)OCCCC[C@H](C)O2 | 0.0 | -0.1 | / | -8.9 | -4.2 | / |
| CCN(CC)CCN(C(=O)/C=C/c1cccs1)c1nc2ccc(F)cc2s1 | 0.0 | 0.8 | 0.9 | -0.7 | -1.6 | / |
| COc1ccc(OC)c2sc(N(CCN(C)C)C(=O)/C=C/c3cccs3)nc12 | 7.0 | / | 0.2 | 89.6* | 101.1* | i |
| COc1ccc(C)c2sc(N(CCN(C)C)C(=O)c3cccc(N4C(=O)CCC4=O)c3)nc12 | 0.0 | / | / | / | 69.9* | i |
| CN(C)CCCN(C(=O)/C=C/c1cccs1)c1nc2ccc(F)cc2s1 | 3.8 | / | -17.1 | 21.2 | 58.4* | i |

Source: PubChem BioAssay
